Read-outs that look alike come from different tables or passages of the source.
How the values were obtained:
STK33 [1] = molecular target: T1, STK33 (Homo sapiens, UniProt Q9BYT3); experiment: NanoBRET target engagement intracellular kinase assay; assay type: cell-based; design: host or cells: HEK293 (HEK293T cultured); details: HEK293 cells, 2 hours incubation
Description: NanoBRET Target Engagement intracellular kinase assay. HEK293T cells were cultured in […]
The cell line underwent authentication by short tandem repeat (STR) profiling at Cytogenetics and Cell Authentication Core (CCAC) at MD Anderson Cancer Center. NanoBRET Target Engagement intracellular kinase assay, K-10 assay (Cat. # N2641), K-9 assay (Cat. # N2631), transfection reagent FuGENE HD (Cat. # E2311), transfection carrier DNA (Cat. # E4881), NanoLuc-STK33 fusion vector (Cat. # NV2111), NanoLuc-RET fusion vector (Cat. # NV1951), NanoLuc-CLK1 fusion vector (Cat. # NV1131), NanoLuc-CLK2 fusion vector (Cat. # NV1141), and NanoLuc-CLK4 fusion vector (Cat. # NV1151) were purchased from Promega. The measurement of test compound engagement with cellular target protein was performed in a 384-well format according to manufacturer’s instructions. HEK293 cells were transiently transfected with NanoLuc (STK33, RET, CLK1, CLK2, and CLK4) fusion vectors. […]
0.4 nM at a fixed tracer concentration. Staurosporine was measured in parallel as a positive control.
Freshly prepared NanoBRET Nano-Glo substrate plus extracellular NanoLuc inhibitor was then added to initiate the subsequent bioluminescence resonance energy transfer (BRET) measurements using a CLARIOstar Plus BMG LABTECH plate reader. […]

Chains of the proteins cited; added tags and fusions are not shown. Lines headed by an entry give the natural chain unless they say otherwise; changes in a name come on top.
UniProt Q9BYT3: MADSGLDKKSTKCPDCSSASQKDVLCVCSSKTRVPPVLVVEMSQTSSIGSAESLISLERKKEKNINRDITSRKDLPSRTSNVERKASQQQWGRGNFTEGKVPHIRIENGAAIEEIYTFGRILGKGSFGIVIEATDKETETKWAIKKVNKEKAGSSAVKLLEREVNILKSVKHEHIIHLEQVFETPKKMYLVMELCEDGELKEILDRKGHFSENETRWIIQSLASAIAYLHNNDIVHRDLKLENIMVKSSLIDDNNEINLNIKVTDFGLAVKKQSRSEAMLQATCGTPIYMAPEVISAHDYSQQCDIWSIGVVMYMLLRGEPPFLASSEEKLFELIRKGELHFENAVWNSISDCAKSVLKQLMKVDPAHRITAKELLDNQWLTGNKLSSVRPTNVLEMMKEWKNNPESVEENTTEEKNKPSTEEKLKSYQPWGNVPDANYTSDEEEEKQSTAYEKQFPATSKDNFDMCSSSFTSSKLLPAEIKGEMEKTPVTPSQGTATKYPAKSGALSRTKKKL

STK33 [2] = molecular target: T1, STK33; experiment: LanthaScreen binding assay (ThermoFisher SelectScreen); design: purchased SelectScreen Services (ThermoFisher)
From the text: In vitro biochemical assays. Several small molecule assays were outsourced to SelectScreen Services (ThermoFisher) for STK33 and for off-target kinases (data sets are available on demand).
These assays are LanthaScreen (binding assay) and Z’-LYTE (activity assay). Dose-responses were done with at least 5 different concentrations in duplicates, and parameters were optimized by calculations described below and provided with standard errors.
Calculation of Kd values for kinase inhibitors that bind to the ATP pocket of a kinase from LanthaScreen binding data. DynaFit (71) was used to fit complex equilibria where a tracer is displaced by a dilution series of a kinase inhibitor. This method relies on the concentration of inhibitor, as well as the concentration of kinase and tracer, and Kd of the tracer. The latter three parameters are tabulated by ThermoFisher for each kinase in the LanthaScreen assay panel. […]
Since Kd and Ki values are defined the same way, in other words, Kd = [E] [I] / [EI] = Ki, Kd and Ki values can be compared. […]

STK33 [3] = molecular target: T1, STK33; design: purchased SelectScreen Services (ThermoFisher); details: read-out: reported IC50 in biochemical assays; cited from earlier work

In the case of ML281 [reference compound], the IC50 (STK33 [1]) is listed as 7.71 µM, the Kd (STK33 [2]) is listed as 0.0396 µM and the IC50 (STK33 [3]) is listed as 0.014 µM.
